Key:
[1] = target: CYP1A2 (Homo sapiens, UniProt P05177); experiment: Cytochrome P450 inhibition, pooled human hepatic microsome; format: in vitro ADME; conditions: read-out: Cytochrome P450 CYP1A2 IC50, procedure of Example 14
[2] = target: CYP2C9 (Homo sapiens, UniProt P11712); experiment: as above; format: in vitro ADME; conditions: read-out: Cytochrome P450 CYP2C9 IC50, procedure of Example 14
[3] = target: CYP3A4 (Homo sapiens, UniProt P08684); experiment: as above; format: in vitro ADME; conditions: read-out: Cytochrome P450 CYP3A4 IC50, procedure of Example 14
[4] = target: CYP2D6 (Homo sapiens, UniProt P10635); experiment: Cytochrome P450 inhibition, pooled human hepatic microsome (O-demethylation of dextromethorphan); format: in vitro ADME; conditions: read-out: Cytochrome P450 CYP2D6 IC50, procedure of Example 14
[5] = target: T1, human opioid receptor-like (ORL-1) (Homo sapiens, UniProt P41146); experiment: In vitro ORL-1 receptor binding assay ([3H]-nociceptin displacement); conditions: read-out: ORL-1 Ki; Average ± Std Deviation; procedure of Example 6
[6] = target: T1, human opioid receptor-like (ORL-1); experiment: ORL-1 receptor [35S]GTPγS functional binding assay; format: biochemical; conditions: mean ± SEM; procedure of Example 7

By UniProt entry, the sequences of proteins in these tests, tags left out. Where a name states a change or a piece, a line headed by the entry shows the natural chain unless it says otherwise.
UniProt P05177, whole entry, looked up: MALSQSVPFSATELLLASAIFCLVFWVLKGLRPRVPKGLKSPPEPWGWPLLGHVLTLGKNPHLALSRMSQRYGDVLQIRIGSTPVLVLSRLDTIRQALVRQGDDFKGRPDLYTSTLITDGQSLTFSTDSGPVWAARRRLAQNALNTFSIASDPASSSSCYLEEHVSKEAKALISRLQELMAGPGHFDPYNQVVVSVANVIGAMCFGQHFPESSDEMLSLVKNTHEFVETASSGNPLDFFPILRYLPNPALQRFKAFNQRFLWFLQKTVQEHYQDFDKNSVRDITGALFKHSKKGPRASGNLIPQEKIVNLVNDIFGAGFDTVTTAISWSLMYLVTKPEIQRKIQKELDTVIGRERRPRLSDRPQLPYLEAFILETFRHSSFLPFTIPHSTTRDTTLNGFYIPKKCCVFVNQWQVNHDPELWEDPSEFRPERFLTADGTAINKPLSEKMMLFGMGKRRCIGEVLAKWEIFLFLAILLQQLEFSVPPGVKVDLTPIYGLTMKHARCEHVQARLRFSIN
UniProt P11712, whole entry, looked up: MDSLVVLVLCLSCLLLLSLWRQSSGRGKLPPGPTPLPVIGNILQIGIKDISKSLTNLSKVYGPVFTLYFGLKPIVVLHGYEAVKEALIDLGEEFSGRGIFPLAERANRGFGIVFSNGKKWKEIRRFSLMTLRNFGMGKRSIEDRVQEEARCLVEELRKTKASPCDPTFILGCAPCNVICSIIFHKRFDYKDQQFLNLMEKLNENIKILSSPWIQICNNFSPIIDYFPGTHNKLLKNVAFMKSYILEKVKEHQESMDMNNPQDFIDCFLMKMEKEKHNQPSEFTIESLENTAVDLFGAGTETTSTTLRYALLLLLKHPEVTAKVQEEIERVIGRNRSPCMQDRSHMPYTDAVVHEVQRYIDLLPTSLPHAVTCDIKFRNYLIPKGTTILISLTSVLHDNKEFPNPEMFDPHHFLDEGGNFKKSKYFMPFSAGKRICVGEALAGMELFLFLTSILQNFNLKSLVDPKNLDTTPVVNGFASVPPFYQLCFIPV
UniProt P08684, whole entry, looked up: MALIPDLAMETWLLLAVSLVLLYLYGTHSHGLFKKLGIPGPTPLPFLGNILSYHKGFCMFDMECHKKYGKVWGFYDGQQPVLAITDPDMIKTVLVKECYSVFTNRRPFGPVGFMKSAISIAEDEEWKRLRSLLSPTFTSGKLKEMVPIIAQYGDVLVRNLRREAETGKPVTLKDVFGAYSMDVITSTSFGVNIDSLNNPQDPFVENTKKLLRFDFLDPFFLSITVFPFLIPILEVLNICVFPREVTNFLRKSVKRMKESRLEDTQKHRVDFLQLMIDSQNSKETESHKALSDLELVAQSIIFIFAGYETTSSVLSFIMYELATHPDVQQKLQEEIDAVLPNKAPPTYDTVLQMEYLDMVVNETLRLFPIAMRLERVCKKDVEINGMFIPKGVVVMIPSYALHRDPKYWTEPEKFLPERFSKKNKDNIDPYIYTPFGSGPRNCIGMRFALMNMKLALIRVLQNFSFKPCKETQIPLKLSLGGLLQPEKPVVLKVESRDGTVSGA
UniProt P10635, whole entry, looked up: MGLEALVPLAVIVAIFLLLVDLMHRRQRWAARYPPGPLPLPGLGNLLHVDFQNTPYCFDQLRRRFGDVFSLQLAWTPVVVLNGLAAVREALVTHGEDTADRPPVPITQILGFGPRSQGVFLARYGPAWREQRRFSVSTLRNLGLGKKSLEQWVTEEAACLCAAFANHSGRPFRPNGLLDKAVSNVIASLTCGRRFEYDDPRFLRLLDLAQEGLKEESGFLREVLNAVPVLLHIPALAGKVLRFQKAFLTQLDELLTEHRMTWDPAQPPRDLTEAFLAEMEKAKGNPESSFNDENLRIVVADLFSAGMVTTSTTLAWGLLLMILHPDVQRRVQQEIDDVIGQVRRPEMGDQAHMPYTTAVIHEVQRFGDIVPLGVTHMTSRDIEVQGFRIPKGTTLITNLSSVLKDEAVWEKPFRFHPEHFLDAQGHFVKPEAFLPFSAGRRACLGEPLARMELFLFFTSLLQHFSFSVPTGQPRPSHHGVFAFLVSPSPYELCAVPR
UniProt P41146: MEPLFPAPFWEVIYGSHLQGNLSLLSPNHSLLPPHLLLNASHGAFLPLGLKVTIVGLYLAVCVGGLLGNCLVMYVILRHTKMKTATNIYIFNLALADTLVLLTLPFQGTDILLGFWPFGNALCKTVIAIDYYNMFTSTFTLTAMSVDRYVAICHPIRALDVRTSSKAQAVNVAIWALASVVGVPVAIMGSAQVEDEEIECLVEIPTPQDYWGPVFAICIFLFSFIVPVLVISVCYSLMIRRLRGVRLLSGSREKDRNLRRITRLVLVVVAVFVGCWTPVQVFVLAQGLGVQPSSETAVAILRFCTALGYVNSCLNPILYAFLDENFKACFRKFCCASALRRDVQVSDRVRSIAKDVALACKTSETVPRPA

Molecule | IC50 [1] [µM] | IC50 [2] [µM] | IC50 [3] [µM] | IC50 [4] [µM] | Ki [5] [µM] | ORL-1 GTPγS Emax [6] [%]
O=C(O)C(=O)c1cn([C@H]2C[C@H]3CCC[C@@H](C2)N3[C@H]2C[C@@H]3CCC[C@@H](C3)C2)c2ccccc12 | > 20 | > 20 | > 20 | > 20 |  | 
2-(1-((1R,3r,5S)-9-cyclodecyl-9-azabicyclo[3.3.1]nonan-3-yl)-1H-indol-3-yl)-2-oxoacetic acid | > 20 | > 20 | > 20 | 3.25 | 0.00584 | 100 ± 5.51
NC(=O)C(=O)c1cn([C@H]2C[C@H]3CCC[C@@H](C2)N3[C@H]2C[C@@H]3CCC[C@@H](C3)C2)c2ccccc12 | > 20 | > 20 | > 20 | > 20 |  | 
